Data taken from patent publication US20180258180A1, “COMBINATION THERAPY INVOLVING ANTIBODIES AGAINST CLAUDIN 18.2 FOR TREATMENT OF CANCER” (Ganymed Pharmaceuticals AG, priority 2012, published 2018).

Assays:
PBMCs [1] = assay: Expansion of PBMC cultures with ZA/IL-2; assay type: cell-based, human; settings: 14 days, 1 μM ZA
Protocol: The effect of ZA/IL-2 on proliferation of PBMC cultures was assessed in vitro. PBMCs were harvested from healthy human donors and cultures were treated with a single dose of ZA. IL-2 was added every 3-4 days. Specifically, PBMC derived from 3 different healthy human donors (#1, #2, #3) were cultured in RPMI medium (1×10^6 cells/ml) for 14 days with 1 μM ZA plus high (300 U/ml) or low (25 U/ml) doses of IL-2; cf. FIG. 8a. PBMCs of the same donors were cultured additionally in RPMI medium for 14 days with 300 U/ml IL-2 plus ZA or without ZA; cf. FIG. 8b. Increase in cell numbers was determined by counting living cells on day 6, 8, 11 and 14.

Vγ9Vδ2 T cells = assay: IL-2 dose response on Vγ9Vδ2 T cells in ZA supplemented PBMC cultures; assay type: cell-based, human
Protocol: PBMCs were cultivated for 14 days in RPMI medium supplemented with 1 μM ZA and increasing IL-2 concentrations. IL-2 was added on day 0 and day 4. The enrichment of CD16+Vγ9+Vδ2+ T cells within the CD3+ lymphocyte population was determined by multicolor FACS staining on day 0 and day 14. To compare the different donors, the amount of CD16+Vγ9+Vδ2+ T cells harvested after cultivation with 600 U/ml IL-2 was set to 100%; cf. FIG. 10, left. Furthermore, ADCC activity of the isolated cultures grown for 14 days in increasing concentrations of IL-2 was tested; cf. FIG. 10, right.

PBMCs [2] = assay: Composition of PBMC cultures (NK cells, Vγ9Vδ2 T cells) by multicolor FACS; assay type: cell-based, human; settings: 10 donors, 14 days, 300 U/ml IL-2 with or w/o 1 μM ZA
Protocol: Growth and differentiation of specific cell types in PBMC cultures depends on presence of cytokines. These components are either added to the medium (e.g. growth factors present in the serum, IL-2) or secreted by the immune cells themselves. Which type of cells evolves also depends on the initial composition of the PBMCs and on genetic endowments. To analyze the overall increase in effector cells (NK cells and Vγ9Vδ2 T cells) PBMCs of 10 different donors were grown in the presence of 300 U/ml IL-2 and with or w/o 1 μM ZA for 14 days. The amount of effector cells within the lymphocyte population was identified by multicolor FACS staining using CD3, CD16, CD56, Vγ9 and V62 antibodies. CD3-CD56+CD16+ cells represent NK cells and CD3+Vγ9+Vδ2+ represent Vγ9Vδ2 T cells.

[3] = test system: CLS-103~cldn18.2 allograft tumors; assay: Combination of IMAB362 and EOF on CLS-103~cldn18.2 allograft tumors; set-up: species or system NMRI mice; settings: mouse, in vivo
Protocol: CLS-103˜cldn18.2 allograft tumors were inoculated by injection of 1×10^6 CLS-103˜cldn18.2 cells subcutaneous into the flank of 10 NMRI mice for each treatment group. […] IL-2 was administered semi-weekly by subcutaneous injection of 3000 IE. […] Tumor size and animal health were monitored semi-weekly. Mice were sacrificed, when tumor reached a volume of 1400 mm^3 or tumors became ulcerous.

NUGC-4 xenografts = assay: Biodistribution of Dyelight 680-labeled antibodies in NUGC-4 xenografted nude mice; settings: live imaging

Substance	expanded cells, high dose (300 U/ml) versus low dose (25 U/ml) IL-2 (PBMCs [1])	ADCC activity of cells grown in higher IL-2 concentrations compared to low (Vγ9Vδ2 T cells; 150-600 U/ml IL-2)	growth and survival of the Vγ9Vδ2 T cell subset (Vγ9Vδ2 T cells; dose response analysis, 1 μM ZA, 14 days)	cell type developing in PBMC cultures (PBMCs [2])	tumor growth inhibition compared to saline control group [3]	retention of labeled antibody signal 120 hours after injection (NUGC-4 xenografts)
IL-2: Interleukin-2, a type of cytokine signaling molecule in the immune system	2-5 fold	improved	stimulates growth and survival	mainly NK cells develop	no effect	–
Trastuzumab: antibody targeting HER2/neu, Dyelight 680-labeled positive control	–	–	–	–	–	rapidly washed out
